For one compound, IC50 results are on record in patent US6534546B1 (Chugai Seiyaku Kabushiki Kaisha, priority 1994, dated 2003).

Broadly, the IC50 is the concentration that gives 50% inhibition.

For the experiment, the target named is T1, E-cNOS (Type 3) (Bos taurus, UniProt P29473).
T1 construct: the resulting supernatant was used as the crude enzyme sample of E-cNOS; endogenous in cells; host or cells: CPAE (cow pulmonary arterial endothelium cells), 1% Triton X-100 extract, 100,000 x g supernatant
As to the kind of experiment: biochemical.

As to `CNC(=N)NCCC[C@H](N)C(=O)O` [L-NMMA, N^G-monomethyl-L-arginine, reference compound], it took 490 nM to reach half-maximal inhibition (IC50).
